## AlphaSeq binding of Ab-14 heavy chain variants to a spike HR2 peptide

The target is the same throughout: PDVDLGDISGINAS, from the HR2 region of SARS-CoV-2 spike.

Each scFv is VH, a (GGGGS)3 linker, VL, as in the parent Ab-14, and differs from it in the CDRs of the heavy chain only.
VH: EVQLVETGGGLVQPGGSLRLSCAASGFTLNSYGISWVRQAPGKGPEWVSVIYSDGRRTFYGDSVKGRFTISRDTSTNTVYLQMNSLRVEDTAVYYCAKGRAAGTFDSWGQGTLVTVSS
VL: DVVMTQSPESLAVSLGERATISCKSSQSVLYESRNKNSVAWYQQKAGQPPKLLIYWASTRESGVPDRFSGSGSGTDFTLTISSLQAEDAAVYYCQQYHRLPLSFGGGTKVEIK

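Phage display of a naive human antibody library on the peptide gave the parent. In library AAYL49, one, two or three CDR residues were substituted; doubles and triples were drawn at random. Affinity was read by AlphaSeq, a pooled yeast mating assay with surface-displayed partners. Mating (16 h, 30 °C) was followed by selection of diploids and sequencing of their barcodes. The ratio of observed to expected reads was calibrated, replicate by replicate, on BCL2-family standards whose Kd was known from biolayer interferometry. Mating was done three times.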

Each variant's VH is given in full. The read-out is the apparent dissociation constant on a log10 scale (nM): the lower, the stronger. The mean shown is taken over the replicates in which the pair was detected. "nd" marks a missing value. The strain was present, yet no cells mated with the target were sequenced in that replicate, which points to weak or no binding. For reference, the parent read 0.65 as the reference entry and 4.11 (one replicate of three) as a member of this library. As a blank, each scFv also met three strains without target: over library AAYL49, 15% of these pairings were detected, typically at 4.06 and seldom below 2.83. For each scFv, signals with the empty controls are counted beside the result, with their mean in brackets.

VH | replicates, log10 nM | mean log10 Kd (nM) | empty controls
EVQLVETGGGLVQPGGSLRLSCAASGFTLNSYGISWVRQAPGKGPEWVSVIYWFGRRTFYGDSVKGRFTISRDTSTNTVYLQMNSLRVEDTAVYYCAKGRAMGTFDSWGQGTLVTVSS | nd nd nd | nd | 0 of 9
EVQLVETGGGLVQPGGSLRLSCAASGFTLNSYGISWVRQAPGKGPEWVSVIYSDGRRTFYGRSVKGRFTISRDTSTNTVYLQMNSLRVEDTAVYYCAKGRAEGSFDSWGQGTLVTVSS | nd nd nd | nd | 1 of 9 (3.61)
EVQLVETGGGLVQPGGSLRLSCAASKFTLNSYGITWVRQAPGKGPEWVSVIYSDGRRTFYSDSVKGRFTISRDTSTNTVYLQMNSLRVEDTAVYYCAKGRAAGTFDSWGQGTLVTVSS | nd nd nd | nd | 0 of 9
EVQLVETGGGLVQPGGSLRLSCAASGFTHNSYGISWVRQAPGKGPEWVSVIYSDGRRTFYADSVKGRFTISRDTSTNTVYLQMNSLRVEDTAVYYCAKGQAAGTFDSWGQGTLVTVSS | nd nd nd | nd | 1 of 9 (2.06)
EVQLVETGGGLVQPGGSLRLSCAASGFTLNSYGPSWVRQAPGKGPEWVSVIYIDGRRTFYNDSVKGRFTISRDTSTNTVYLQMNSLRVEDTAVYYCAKGRAAGTFDSWGQGTLVTVSS | 5.13 3.00 4.71 | 4.28 | 5 of 9 (4.21)
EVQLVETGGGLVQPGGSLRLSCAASGFTLNSYGISWVRQAPGKGPEWVSVVYSDGRRTFYGDSVKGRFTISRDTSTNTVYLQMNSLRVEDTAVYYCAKGRAAGTFDSWGQGTLVTVSS | 3.09 nd nd | 3.09 | 0 of 9
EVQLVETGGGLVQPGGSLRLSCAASGFCLNIYGISWVRQAPGKGPEWVSVIYSDGRRTFYGDSVKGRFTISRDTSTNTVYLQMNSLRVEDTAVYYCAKGRAGGTFDSWGQGTLVTVSS | 1.91 nd nd | 1.91 | 0 of 9
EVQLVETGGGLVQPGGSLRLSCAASGFTLNSYGISWVRQAPGKGPEWVSVAYSDGRRTFYGDNVKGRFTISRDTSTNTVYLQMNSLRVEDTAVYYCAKGHAAGTFDSWGQGTLVTVSS | nd nd nd | nd | 1 of 9 (3.57)
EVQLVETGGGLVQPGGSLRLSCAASGFTENSYSISWVRQAPGKGPEWVSVIYSDGRRTFYGMSVKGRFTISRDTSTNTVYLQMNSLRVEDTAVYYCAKGRAAGTFDSWGQGTLVTVSS | nd nd nd | nd | 1 of 9 (3.12)
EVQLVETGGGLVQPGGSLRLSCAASGFTLNSYGISWVRQAPGKGPEWVSVIYSDGRRTFYGDSVKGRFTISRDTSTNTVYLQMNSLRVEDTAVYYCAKGRNAVTCDSWGQGTLVTVSS | 4.43 nd nd | 4.43 | 0 of 9
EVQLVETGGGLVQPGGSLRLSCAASGFTLNSYGIEWVRQAPGKGPEWVSVIYSDGRRTFDGDSVKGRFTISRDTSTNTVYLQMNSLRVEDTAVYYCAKGRAACTFDSWGQGTLVTVSS | nd nd nd | nd | 3 of 9 (3.42)
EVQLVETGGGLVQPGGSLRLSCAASGFTLNSYGISWVRQAPGKGPEWVSVIYSLGRRTFYGDSVGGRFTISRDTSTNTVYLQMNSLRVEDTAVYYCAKNRAAGTFDSWGQGTLVTVSS | 6.33 3.10 4.34 | 4.59 | 4 of 9 (4.55)
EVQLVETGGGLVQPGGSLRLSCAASGFTLNSYGISWVRQAPGKGPEWVSVIYSWGRRTFYGDSVKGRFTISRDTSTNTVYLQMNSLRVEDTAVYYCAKGRAAGTRESWGQGTLVTVSS | nd nd nd | nd | 1 of 9 (3.40)
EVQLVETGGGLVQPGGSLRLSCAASGHTLNSYGISWVRQAPGKGPEWVSVIYSDIRRTFYGKSVKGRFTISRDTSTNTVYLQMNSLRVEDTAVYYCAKGRAAGTFDSWGQGTLVTVSS | nd nd nd | nd | 0 of 9
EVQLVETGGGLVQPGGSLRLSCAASGFSLNSYGISWVRQAPGKGPEWVSVIYSDGRRTFYGDSVKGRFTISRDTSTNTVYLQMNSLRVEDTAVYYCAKGRAAGETDSWGQGTLVTVSS | 1.49 1.35 1.76 | 1.53 | 1 of 9 (4.13)
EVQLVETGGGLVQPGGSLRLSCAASGFFLNSYGISWVRQAPGKGPEWVSVIYSDGRRTFYGDSYCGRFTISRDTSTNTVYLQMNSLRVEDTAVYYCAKGRAAGTFDSWGQGTLVTVSS | nd nd 4.21 | 4.21 | 2 of 9 (3.60)
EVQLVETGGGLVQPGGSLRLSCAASGFTLNSYGISWVRQAPGKGPEWVSVIYSDGRRLFYGDSVKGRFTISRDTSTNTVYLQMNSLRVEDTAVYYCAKGRATGTDDSWGQGTLVTVSS | nd 4.14 3.72 | 3.93 | 4 of 9 (3.62)
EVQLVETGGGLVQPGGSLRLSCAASLFTLNSYVISWVRQAPGKGPEWVSVIYSDGRRTFYGDDVKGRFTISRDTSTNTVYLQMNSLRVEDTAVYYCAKGRAAGTFDSWGQGTLVTVSS | nd 4.21 nd | 4.21 | 1 of 9 (3.56)
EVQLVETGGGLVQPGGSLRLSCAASGFTLNSYGISWVRQAPGKGPEWVSFIYSDGRRTFYGDSVKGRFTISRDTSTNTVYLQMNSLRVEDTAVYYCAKGRGAGTFDSWGQGTLVTVSS | nd nd nd | nd | 0 of 9
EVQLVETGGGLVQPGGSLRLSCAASGFTLNSYGIIWVRQAPGKGPEWVSVIYGGGRRTFYGDSVKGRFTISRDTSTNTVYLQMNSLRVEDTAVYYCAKGRAAGTFDSWGQGTLVTVSS | nd nd nd | nd | 0 of 9
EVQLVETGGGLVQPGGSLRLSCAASGFTLNSYGISWVRQAPGKGPEWVSVIYSDGRRTFYLDSVKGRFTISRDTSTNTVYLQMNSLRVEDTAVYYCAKQTAAGTFDSWGQGTLVTVSS | nd nd nd | nd | 1 of 9 (3.29)
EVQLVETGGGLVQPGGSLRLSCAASIFTLVSYGISWVRQAPGKGPEWVSVIYSDDRRTFYGDSVKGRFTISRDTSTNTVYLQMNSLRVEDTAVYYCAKGRAAGTFDSWGQGTLVTVSS | nd 4.32 5.67 | 4.99 | 1 of 9 (4.51)
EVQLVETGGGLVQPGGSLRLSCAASGFTLNSYGISWVRQAPGKGPEWVSVIYGDGRRTFYGDWVKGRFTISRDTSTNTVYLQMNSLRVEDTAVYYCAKGRAFGTFDSWGQGTLVTVSS | nd nd nd | nd | 0 of 9
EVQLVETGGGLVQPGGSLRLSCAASGFTLNSYGISWVRQAPGKGPEWVSWIYSDGRATFYGDSVKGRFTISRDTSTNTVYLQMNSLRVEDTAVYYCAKGRAAGCFDSWGQGTLVTVSS | 4.36 4.80 4.94 | 4.70 | 6 of 9 (4.54)
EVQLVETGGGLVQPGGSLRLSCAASGFTLNHYGISWVRQAPGKGPEWVSVIQSDGRRTFYGDSVKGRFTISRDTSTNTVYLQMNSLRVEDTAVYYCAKERAAGTFDSWGQGTLVTVSS | nd 4.00 4.56 | 4.28 | 4 of 9 (4.37)

The opening 4 entries, copied out:

| VH | replicates, log10 nM | mean log10 Kd (nM) | empty controls |
|---|---|---|---|
| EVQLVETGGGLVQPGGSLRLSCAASGFTLNSYGISWVRQAPGKGPEWVSVIYWFGRRTFYGDSVKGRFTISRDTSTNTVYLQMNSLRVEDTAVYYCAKGRAMGTFDSWGQGTLVTVSS | nd nd nd | nd | 0 of 9 |
| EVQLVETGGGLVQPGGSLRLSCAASGFTLNSYGISWVRQAPGKGPEWVSVIYSDGRRTFYGRSVKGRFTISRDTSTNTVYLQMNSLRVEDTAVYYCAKGRAEGSFDSWGQGTLVTVSS | nd nd nd | nd | 1 of 9 (3.61) |
| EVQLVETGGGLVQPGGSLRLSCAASKFTLNSYGITWVRQAPGKGPEWVSVIYSDGRRTFYSDSVKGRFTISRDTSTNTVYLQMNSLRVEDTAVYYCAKGRAAGTFDSWGQGTLVTVSS | nd nd nd | nd | 0 of 9 |
| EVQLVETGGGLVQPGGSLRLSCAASGFTHNSYGISWVRQAPGKGPEWVSVIYSDGRRTFYADSVKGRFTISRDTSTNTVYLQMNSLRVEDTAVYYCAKGQAAGTFDSWGQGTLVTVSS | nd nd nd | nd | 1 of 9 (2.06) |

From the AlphaSeq antibody data of Engelhart et al. 2022 (doi:10.1038/s41597-022-01779-4), copy in the FLAb collection.